Laboratory results from PMC8217813, “Bridging Computational Vaccinology and Vaccine Development Through Systematic Identification, Characterization, and Downselection of Conserved and Variable Circumsporozoite Protein CD4 T Cell Epitopes From Diverse Plasmodium falciparum Strains” (Frontiers in Immunology, 2021).

System: CD4 T cells co-cultured with autologous DCs from PBMCs
Assay type: cell-based, human

CC[C@H](C)[C@H](NC(=O)[C@H](Cc1c[nH]cn1)NC(=O)[C@H](CCCCN)NC(C)=O)C(=O)N[C@@H](CCCCN)C(=O)N[C@@H](CCC(=O)O)C(=O)N[C@@H](Cc1ccc(O)cc1)C(=O)N[C@@H](CC(C)C)C(=O)N[C@@H](CC(N)=O)C(=O)N[C@@H](CCCCN)C(=O)N[C@H](C(=O)N[C@@H](CCC(N)=O)C(=O)N[C@@H](CC(N)=O)C(=O)N[C@@H](CO)C(=O)N[C@@H](CC(C)C)C(=O)N[C@@H](CO)C(=O)N[C@H](C(=O)N[C@@H](CCC(=O)O)C(=O)N[C@@H](Cc1c[nH]c2ccccc12)C(=O)N[C@@H](CO)C(N)=O)[C@@H](C)O)[C@@H](C)CC [Cluster C3]
Percentage of donors demonstrating IFN-γ responses, DR1: 20% | Percentage of donors demonstrating IFN-γ responses, DR3: 33% | Percentage of donors demonstrating IFN-γ responses, DR4: 50% | Percentage of donors demonstrating IFN-γ responses, DR7: 50% | Percentage of donors demonstrating IFN-γ responses, DR8: 75% | Percentage of donors demonstrating IFN-γ responses, DR9: 50% | Percentage of donors demonstrating IFN-γ responses, DR11: 25% | Percentage of donors demonstrating IFN-γ responses, DR13: 0% | Percentage of donors demonstrating IFN-γ responses, DR15: 29% | Percentage of donors demonstrating IL-2 responses, DR1: 20% | Percentage of donors demonstrating IL-2 responses, DR3: 33% | Percentage of donors demonstrating IL-2 responses, DR4: 40% | Percentage of donors demonstrating IL-2 responses, DR7: 50% | Percentage of donors demonstrating IL-2 responses, DR8: 50% | Percentage of donors demonstrating IL-2 responses, DR9: 50% | Percentage of donors demonstrating IL-2 responses, DR11: 25% | Percentage of donors demonstrating IL-2 responses, DR13: 0% | Percentage of donors demonstrating IL-2 responses, DR15: 14% | Percentage of donors demonstrating IL-4 responses, DR1: 20% | Percentage of donors demonstrating IL-4 responses, DR3: 0% | Percentage of donors demonstrating IL-4 responses, DR4: 0% | Percentage of donors demonstrating IL-4 responses, DR7: 0% | Percentage of donors demonstrating IL-4 responses, DR8: 0% | Percentage of donors demonstrating IL-4 responses, DR9: 0% | Percentage of donors demonstrating IL-4 responses, DR11: 0% | Percentage of donors demonstrating IL-4 responses, DR13: 0% | Percentage of donors demonstrating IL-4 responses, DR15: 0% | Percentage of donors demonstrating IL-10 responses, DR1: 0% | Percentage of donors demonstrating IL-10 responses, DR3: 17% | Percentage of donors demonstrating IL-10 responses, DR4: 10% | Percentage of donors demonstrating IL-10 responses, DR7: 0% | Percentage of donors demonstrating IL-10 responses, DR8: 25% | Percentage of donors demonstrating IL-10 responses, DR9: 50% | Percentage of donors demonstrating IL-10 responses, DR11: 0% | Percentage of donors demonstrating IL-10 responses, DR13: 0% | Percentage of donors demonstrating IL-10 responses, DR15: 29% | Percentage of donors demonstrating TNF-α responses, DR1: 40% | Percentage of donors demonstrating TNF-α responses, DR3: 33% | Percentage of donors demonstrating TNF-α responses, DR4: 40% | Percentage of donors demonstrating TNF-α responses, DR7: 50% | Percentage of donors demonstrating TNF-α responses, DR8: 50% | Percentage of donors demonstrating TNF-α responses, DR9: 50% | Percentage of donors demonstrating TNF-α responses, DR11: 75% | Percentage of donors demonstrating TNF-α responses, DR13: 14% | Percentage of donors demonstrating TNF-α responses, DR15: 14%
